The results in this text go back to ChEMBL document CHEMBL5244277, “A review upon medicinal perspective and designing rationale of DPP-4 inhibitors” (Bioorg Med Chem, 2021).

The species named for experiment [1] is Homo sapiens. Description: Selectivity index, ratio of IC50 for human DPP-4 to IC50 for human DPP-8.
For experiment [2], the species on record is Homo sapiens. Description: Selectivity index, ratio of IC50 for human DPP-4 to IC50 for human DPP-9.

The structures appear in SMILES notation.

Consider `CC#CCn1c(N2CCC[C@@H](N)C2)cc(=O)n(Cc2cn(CC(=O)N(C)C)nn2)c1=O`, for which the Ratio IC50 in the experiment listed under Homo sapiens [1] and in the experiment listed under Homo sapiens [2] was 3500 in each case.
